Experiments:
MDM2 = MDM2 (Homo sapiens, UniProt Q00987); experiment: Competitive fluorescence polarization assay for MDM2; assay type: binding; settings: competitive FP assay
MDMX = target: T1, MDMX (Homo sapiens, UniProt O15151); experiment: Competitive fluorescence polarization assay for MDMX; assay type: binding; settings: competitive FP assay
T1 sequence (O15151 1-125): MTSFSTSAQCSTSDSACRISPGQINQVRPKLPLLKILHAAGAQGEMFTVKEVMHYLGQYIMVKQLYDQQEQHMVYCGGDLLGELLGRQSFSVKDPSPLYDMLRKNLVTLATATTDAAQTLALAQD

The chains behind the UniProt entries cited, without tags or fusion partners. Residues count along the entry.
UniProt Q00987, 1-125: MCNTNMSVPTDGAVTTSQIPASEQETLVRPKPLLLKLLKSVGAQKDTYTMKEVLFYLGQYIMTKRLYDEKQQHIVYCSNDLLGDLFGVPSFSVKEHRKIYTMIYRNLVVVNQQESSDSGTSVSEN

CC(=O)N[C@@H](CC(C)C)C(=O)N[C@H](C(=O)N[C@@H](Cc1ccccc1)C(=O)N[C@]1(C)CCCCCCC=CCCC[C@@](C)(C(=O)N[C@@H](CO)C(=O)N[C@@H](C)C(=O)N[C@H](C)C(N)=O)NC(=O)[C@H](CC(C)C)NC(=O)[C@H](CCC(N)=O)NC(=O)[C@H](C)NC(=O)[C@H](Cc2c[nH]c3ccccc23)NC(=O)[C@H](Cc2ccc(O)cc2)NC(=O)[C@H](C(C)C)NC1=O)[C@@H](C)O [compound 137]
IC50 (MDM2; IC50 (MDM2)): < 10 nM
Ki (MDM2; Ki (MDM2)): < 10 nM
IC50 (MDMX; IC50 (MDMX)): 100 to 1000 nM
Ki (MDMX; Ki (MDMX)): 10 to 100 nM

From patent publication US8927500B2, “Peptidomimetic macrocycles” (Aileron Therapeutics, Inc., priority 2012, dated 2015)
